Source: PubChem BioAssay AID588814 (The Scripps Research Institute Molecular Screening Center, 2011)
The entries are a selection whose mix differs from that of the whole data set. Calls of active or inactive are those of the source.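 How the source made its calls: active means activation above the run's mean compound activation plus 3 SD (cut at about 16% in these data); inactive means the rest.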

Amino acid sequences for entries named in this document (tags omitted). A change or cut given only in a name is not applied to a line headed by its entry.
UniProt P11229: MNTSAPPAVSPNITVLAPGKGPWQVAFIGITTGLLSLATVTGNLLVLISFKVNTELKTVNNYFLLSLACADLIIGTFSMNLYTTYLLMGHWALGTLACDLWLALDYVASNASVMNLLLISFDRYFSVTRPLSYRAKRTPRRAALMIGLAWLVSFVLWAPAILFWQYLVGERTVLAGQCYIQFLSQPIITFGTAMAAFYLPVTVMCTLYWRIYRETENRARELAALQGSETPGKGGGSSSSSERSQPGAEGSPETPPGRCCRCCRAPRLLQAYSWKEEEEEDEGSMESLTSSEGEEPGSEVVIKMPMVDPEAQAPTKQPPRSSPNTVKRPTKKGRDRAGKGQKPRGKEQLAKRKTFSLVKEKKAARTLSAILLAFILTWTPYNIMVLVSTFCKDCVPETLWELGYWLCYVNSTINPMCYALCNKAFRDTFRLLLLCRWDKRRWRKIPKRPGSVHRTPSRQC

Molecular target: Muscarinic acetylcholine receptor M1 (Homo sapiens) (UniProt P11229)
Assay: human M1 muscarinic receptor agonists, primary screen, Fluo-8 calcium fluorescence, CHO-K1 cells, HTS (AID 588814);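 further: peak over basal fluorescence ratio within a 140 s kinetic read after compound addition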
Settings: CHO-K1 hM1, Fluo-8 calcium fluorescence, agonist mode; at 3 µM; hits give high values; 0% DMSO, 100% acetylcholine EC100

Row | SMILES | activation
1 | CCc1nc2c(n1)c1c(non1O)c1c2no[n+]1[O-] | inactive: 3.27%
2 | Cc1ccc(NP(=O)(Oc2ccccc2)Oc2ccccc2)nc1 | inactive: -4.56%
3 | COc1ccc(C2=NCC(CBr)S2)cc1 (centres undefined) | inactive: -7.52%
4 | COC(=O)C1(C)COP(=O)(Nc2ccccc2)OC1 (centres undefined) | inactive: -1.47%
5 | O=[N+]([O-])c1cccc(NC2=NCC(CBr)S2)c1 (centres undefined) | inactive: -2.48%
6 | O=C(O)CNc1ccc([As](=O)(O)O)cc1 | inactive: -2.6%
7 | C/C=C1/C[C@@H](C)[C@](O)(CO)C(=O)OCC2=CCN3CC[C@@H](OC1=O)[C@@H]23 | inactive: -6.27%
8 | CC(C)(C)C(=O)NC(Sc1ccncn1)C(Cl)(Cl)Cl (centres undefined) | inactive: -1.86%
9 | O=[N+]([O-])c1ncn(CCn2ncnc2[N+](=O)[O-])n1 | inactive: -6.14%
10 | O=C(Nc1cc([As](=O)(O)O)ccc1O)c1ccccc1 | inactive: -1.29%
11 | O=P1(N(CCCl)CCCl)OCCCS1 (centres undefined) | inactive: 2.87%
12 | C(Cc1nn[nH]n1)Cc1nn[nH]n1 | inactive: -4.73%
13 | Nc1ccc([As](=O)(O)c2ccc([N+](=O)[O-])cc2)cc1 | inactive: -1.58%
14 | O=C(OC1CN2CCC1CC2)c1cccc(Cl)c1 (centres undefined) | inactive: -4.97%
15 | O=[N+]([O-])c1ncn(CCn2cnc([N+](=O)[O-])n2)n1 | inactive: 0.06%
16 | CC(=O)NC(SC(=S)N(C)C)C(Cl)(Cl)Cl (centres undefined) | inactive: -3.48%
17 | O=[N+]([O-])c1ccc(O)c(/C=N/Nc2ccc([N+](=O)[O-])cc2[N+](=O)[O-])c1 | inactive: -4.09%
18 | COc1ccc(CC2NCC(O)C2OC(C)=O)cc1 (centres undefined) | inactive: -1.75%
19 | O=[As](O)(c1ccccc1)c1ccc(O)cc1 | inactive: -1.99%
20 | C[C@H]1OP(=O)(Oc2ccccc2)[C@H](O)[C@H](O)[C@H]1N=[N+]=[N-] (some centres undefined) | inactive: 0.3%

Row | SMILES | activation
21 | O=P(Nc1nc2ccccc2s1)(c1ccccc1)c1ccccc1 | inactive: -3.72%
22 | COc1ccc(N)c([N+](=O)[O-])c1[N+](=O)[O-] | inactive: -3.14%
23 | Nc1ccc(CCCCOc2ccccc2)cc1 | inactive: 1.52%
24 | O=P(Nc1ccccn1)(c1ccc(Br)cc1)c1ccc(Br)cc1 | inactive: -4.37%
25 | COc1ccc(C[C@H](C)NC[C@@H](O)c2ccc(O)c(NC=O)c2)cc1 | inactive: -6.39%
26 | c1nnnn1CCn1cnnn1 | inactive: 0.51%
27 | O=P(Nc1nccs1)(c1ccccc1)c1ccccc1 | inactive: -3.82%
28 | CC(C)C(=O)NC(Sc1ccccc1)C(Cl)(Cl)Cl (centres undefined) | inactive: -10.6%
29 | CC(=O)Nc1ccc(Oc2c([N+](=O)[O-])cc([N+](=O)[O-])cc2[N+](=O)[O-])cc1 | inactive: -1.39%
30 | CC(=O)Nc1ccc([As](=O)(O)O)c(O)c1 | inactive: -1.39%
31 | COC(=O)C1(C)COP(=O)(NCc2ccccc2)OC1 (centres undefined) | inactive: -1.53%
32 | CC(=O)c1ccc(N2CC2c2ccncc2)cc1 (centres undefined) | inactive: -3.53%
33 | N#C/C(=C\c1ccc(N(CCBr)CCBr)cc1)C(N)=O | inactive: -0.83%
34 | C[C@H]1OP(=O)(Oc2ccccc2)C[C@@H]2O[C@@H]21 (some centres undefined) | inactive: -0.27%
35 | C[C@@H]1C=CCP(=O)(Oc2ccccc2)O1 (some centres undefined) | inactive: -1.24%
36 | CCN(CC)CCOC(=O)C(O)(c1ccccc1)c1ccccc1 | inactive: -6.38%
37 | Cc1ccccc1CN(C)C(=O)COC(=O)C(O)(c1ccccc1)c1ccccc1 | inactive: 1.39%
38 | CCc1cc(O)c([N+](=O)[O-])c(C)c1[N+](=O)[O-] | inactive: 5.23%
39 | CC(C)(C)C(=O)NC(Sc1ccccc1)C(Cl)(Cl)Cl (centres undefined) | inactive: -15.3%
40 | CCOc1ccc(C2=NCC(CBr)S2)cc1 (centres undefined) | inactive: -1.52%

Row | SMILES | activation
41 | O=P1(Nc2nc3ccc(Cl)cc3s2)COc2ccccc2O1 (centres undefined) | inactive: -4.67%
42 | CCN(C(=O)COC(=O)C(O)(c1ccccc1)c1ccccc1)c1c(N)n(Cc2ccccc2)c(=O)[nH]c1=O | inactive: -0.47%
43 | O=c1c2cc([N+](=O)[O-])ccc2[nH]c2c([N+](=O)[O-])cc([N+](=O)[O-])cc12 | inactive: 15.2%
44 | CN(C)C(=O)Oc1noc2ccccc12 | inactive: -3.63%
45 | CC(NC(=O)COC(=O)C(O)(c1ccccc1)c1ccccc1)c1ccccc1 (centres undefined) | inactive: -1.68%
46 | Cc1ccccc1OP(=O)(Nc1ccccn1)Oc1ccccc1C | inactive: -1.98%
47 | Cc1ccc(OP(=O)(Nc2ccccn2)Oc2ccc(C)cc2)cc1 | inactive: -9.55%
48 | CC(=O)NC(SC(=S)N(CC(C)C)CC(C)C)C(Cl)(Cl)Cl (centres undefined) | inactive: -4.57%
49 | COC(=O)c1cc2c(s1)N=C(c1ccccc1)N(C)P2(=O)N1CCOCC1 (centres undefined) | inactive: 1.43%
50 | CCC(=O)N1C2C3N(C(=O)CC)C1C1N(C(=O)CC)C(C(N1C(=O)CC)N3C(=O)CC)N2C(=O)CC | inactive: -1.88%
51 | Clc1ccc(N2CCN(Cc3c[nH]c4ncccc34)CC2)cc1 | inactive: -1.92%
52 | O=C(OC1CN2CCC1CC2)c1ccccc1 (centres undefined) | inactive: -10.7%
53 | O=P1(N(CCCl)CCCl)OCCC2CCCCN21 (centres undefined) | inactive: -1.01%
54 | CC1C(=O)OC2CCN3CC4OC4(COC(=O)C(C)(O)C1(C)O)C23 (centres undefined) | inactive: 1.97%
55 | O=C(NC1CCS(=O)(=O)C1)NP(=S)(Oc1ccccc1)Oc1ccccc1 (centres undefined) | inactive: -7.57%
56 | CCNC(=S)/N=C(\N)N[N+](=O)[O-] | inactive: -3.34%
57 | C=C1C(=O)OC2CCN3CC=C(COC(=O)C(C)(O)C4(CO4)C1C)C23 (centres undefined) | inactive: -12.3%
58 | Cc1ccc(NP(=O)(Oc2cccc(C)c2)Oc2cccc(C)c2)nc1 | inactive: -0.72%
59 | c1ccc(-c2nn[nH]n2)c(-c2nn[nH]n2)c1 | inactive: -5.04%
